Source: PMC3781056, “New Pyrazolopyrimidine Inhibitors of Protein Kinase D as Potent Anticancer Agents for Prostate Cancer Cells” (PLoS ONE, 2013)

Target: T1, PKD1 (Homo sapiens, UniProt Q15139)
T1 sequence (Q15139 1-912): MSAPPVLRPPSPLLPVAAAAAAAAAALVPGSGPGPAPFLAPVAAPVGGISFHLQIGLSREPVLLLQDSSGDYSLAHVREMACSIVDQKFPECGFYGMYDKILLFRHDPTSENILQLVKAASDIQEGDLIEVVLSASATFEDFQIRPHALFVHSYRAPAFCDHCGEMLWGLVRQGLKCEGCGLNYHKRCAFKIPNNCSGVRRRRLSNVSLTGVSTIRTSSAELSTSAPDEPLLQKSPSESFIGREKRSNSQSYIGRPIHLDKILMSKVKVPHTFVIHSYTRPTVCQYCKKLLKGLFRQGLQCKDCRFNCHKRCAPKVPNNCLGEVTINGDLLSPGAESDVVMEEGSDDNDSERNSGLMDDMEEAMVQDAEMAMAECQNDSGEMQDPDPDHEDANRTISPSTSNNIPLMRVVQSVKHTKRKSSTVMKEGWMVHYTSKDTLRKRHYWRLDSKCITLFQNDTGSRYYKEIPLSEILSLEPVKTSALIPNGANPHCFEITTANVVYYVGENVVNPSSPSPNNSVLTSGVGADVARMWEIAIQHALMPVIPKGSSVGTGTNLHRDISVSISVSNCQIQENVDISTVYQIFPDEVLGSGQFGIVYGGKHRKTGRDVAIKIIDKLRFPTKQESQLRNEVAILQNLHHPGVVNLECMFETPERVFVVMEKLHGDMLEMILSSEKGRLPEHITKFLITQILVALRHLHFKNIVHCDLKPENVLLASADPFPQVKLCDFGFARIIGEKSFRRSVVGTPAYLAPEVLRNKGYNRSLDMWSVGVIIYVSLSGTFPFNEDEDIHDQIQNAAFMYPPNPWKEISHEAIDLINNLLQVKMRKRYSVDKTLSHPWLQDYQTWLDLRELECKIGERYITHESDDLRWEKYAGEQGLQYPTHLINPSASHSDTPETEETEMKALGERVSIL
Assay: In vitro radiometric PKD1 screening assay at 1 µM
Conditions: targeted kinase inhibitor library screen, relative to DMSO

kb-NB142-70
% PKD1 Inhibition: 88%
